## Experimental water solubility values from OPERA 2.9

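These are experimental values that the OPERA curators gathered from public databases to train and test their QSAR models. A listed value is a point estimate from one report or more. Method, purity and exact conditions of the single measurements are not given. Where a salt, mixture or single isomer is drawn, the source does not say that exactly this form was tested. Unmarked limits or estimates from the upstream databases cannot be ruled out.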

Solubility in water is on a log10 molar scale (set defined at 25 °C). Cells with "n/a" have no entry in this list.

structure (SMILES)	name	log solubility (log10 mol/L)
FC(F)(F)OC(F)(F)OC(F)(Cl)C(F)(F)Cl (centres undefined)	1,2-dichloro(perfluoro-1-(methoxymethoxy)ethane)	-5.558
O=C1CCCCCNC(=O)CCCCCNC(=O)CCCCCN1	1,8,15-Triazacycloheneicosane-2,9,16-trione	-1.562
Cc1c(C)c([N+](=O)[O-])c(C(C)(C)C)c([N+](=O)[O-])c1C	1-tert-Butyl-3,4,5-trimethyl-2,6-dinitrobenzene	-6.709
CC(C)(C)c1ccc(C=O)cc1	4-tert-Butylbenzaldehyde	-3.109
CC(C)Nc1nc(=O)nc(NC(C)C)[nH]1	1,3,5-Triazin-2(1H)-one, 4,6-bis((1-methylethyl)amino)-	-3.31
CN(CCO)C(=O)COC(=O)c1ccccc1O	BENZOIC ACID, 2-HYDROXY-, 2-[(2-HYDROXYETHYL)MET	-1.604
NC1NC(=O)NCC1CC(=O)O (centres undefined)	(4-Amino-2-oxohexahydro-5-pyrimidinyl)acetic acid	-1.711
COc1ccc(O)c(C(=O)O)c1	Benzoic acid, 2-hydroxy-5-methoxy-	-1.271
O=[N+]([O-])c1ccc(Nc2ccc(Nc3ccccc3)c(S(=O)(=O)[O-])c2)c([N+](=O)[O-])c1.[Na+]	C.I. Acid Orange 3	-2.199
CCC(=O)OCc1ccccc1	Benzyl propanoate	-2.78
CNCCC=C1c2ccccc2CCc2ccccc21	Nortriptyline	-5.479
O=C1CCCCCNC(=O)CCCCCNC(=O)CCCCCNC(=O)CCCCCN1	1,8,15,22-Tetraazacyclooctacosane-2,9,16,23-tetrone	-2.811
CC(C)(C)OC(=O)N[C@H](C(=O)O)C12CC3CC(CC(O)(C3)C1)C2	n/a	-1.945
Cn1cc[nH]c1=S	Methimazole	-4.62
FC1=C(OC(F)(F)F)OC(F)(F)O1	1,3-Dioxole, 2,2,4-trifluoro-5-(trifluoromethoxy)-	-3.189
CC(C)C[C@H]1OC[C@@H](C)CO1	1,3-Dioxane, 5-methyl-2-(2-methylpropyl)-, cis-	-1.766
CC(C)(C)C(=O)OCOC(=O)[C@@H]1N2C(=O)[C@@H](NC(=O)[C@H](N)c3ccccc3)[C@H]2SC1(C)C	Pivampicillin	-4.117
CC1CCCCC1(O)C(=O)O (centres undefined)	1-Hydroxy-2-methylcyclohexanecarboxylic acid	-0.898
CCC(=O)OCCc1ccccc1	2-Phenylethyl propionate	-3.117
COc1cc(NC(=O)CC(C)=O)c(OC)cc1Cl	4'-Chloro-2',5'-dimethoxyacetoacetanilide	-2.979
Cc1cc(C)cc(NC(=O)N(C)C)c1	N'-(3,5-Dimethylphenyl)-N,N-dimethylurea	-2.22
CSCSC	Methane, bis(methylthio)-	-1.54
CCN(CC)CCS(=O)(=O)[C@@H]1CCN2C(=O)c3coc(n3)CC(=O)C[C@H](O)C=C(C)C=CCNC(=O)C=C[C@@H](C)[C@@H](C(C)C)OC(=O)[C@@H]12	Dalfopristin	-3.984
O=C(Nc1ccc(S(=O)(=O)O)cc1)c1cc2ccccc2cc1O	4-[(3-Hydroxy-2-naphthoyl)amino]benzenesulfonic acid	-2.592
COc1cc(Br)c(CCC#N)cc1OC	3-(2-Bromo-4,5-dimethoxyphenyl)propanenitrile	-3.443
NC(=O)Nc1ccccc1Cl	(2-Chlorophenyl)urea	-1.53
CCCCCCCCCCCC(=O)N[C@@H](CCC(=O)NCCCC)C(=O)NCCCC	n/a	-7.544
Cn1c(=O)[nH]c2c(=O)n(C)c(=O)n(C)c2c1=O	n/a	-3.764
O=C1CNC(=O)N1	Hydantoin	-0.4
CC[C@@H]1C=C(C)C[C@H](C)C[C@H](OC)[C@H]2O[C@@](O)(C(=O)C(=O)N3CCCC[C@H]3C(=O)O[C@H](/C(C)=C/[C@@H]3CC[C@@H](Cl)[C@H](OC)C3)[C@H](C)[C@@H](O)CC1=O)[C@H](C)C[C@@H]2OC	Pimecrolimus	-5.727
CCCc1nc(C(=O)O)c(C(=O)O)[nH]1	2-propyl-1H-imidazole-4,5-dicarboxylic Acid	-2.19
Cc1cc(C)cc(C(=O)Cl)c1	Benzoyl chloride, 3,5-dimethyl-	-3.329
COC(=O)CS(=O)(=O)c1ccccc1	Methyl phenylsulfonyl acetate	-1.141
N[C@@H]1[C@@H](O)[C@H](O)[C@@H](CO)O[C@H]1O	Glucosamine	0.265
CC1(C)[C@H]2CC[C@]3(C2)[C@H]1C1(CCC3(C)C)OCCO1	n/a	-5.221
CC(C)c1cccc(C(C)C)c1N=C=Nc1c(C(C)C)cccc1C(C)C	Bis(2,6-diisopropylphenyl)carbodiimide	-6.86
CC(C)COC(=O)C(C)Oc1ccc(Oc2ccc(Cl)cc2)cc1 (centres undefined)	Clofop-isobutyl	-3.287
CC(=O)Oc1c(C)cc(OCC(O)CNC(C)C)c(C)c1C (centres undefined)	Metipranolol	-3.252
O=NN(CCCl)C(=O)NC1CCCCC1	Lomustine	-2.491
O=C(O)c1ccccc1C(=O)OCCOC(=O)c1ccccc1C(=O)O	2,2'-[1,2-Ethanediylbis(oxycarbonyl)]dibenzoic acid	-2.828
CCCCCCCC/C=C/CCCCCCCC(=O)O.CCCCCCCC/C=C/CCCCCCCC(=O)O.CCCCCCCC/C=C/CCCCCCCCNCCCN	n/a	-8.25
CC1=CCC(C=CC(C)C(C)O)C1(C)C (centres undefined)	n/a	-3.786
O=c1[nH]c2[nH]cnc(=O)c2[nH]c1=O	4,6,7-Pteridinetriol	-3.678
Cc1cc2nc(O)[nH]c2cc1N	6-Amino-5-methyl-1H-benzimidazol-2-ol	-1.849
CC(C)C(=O)c1c(C(C)C)nn2ccccc12	Ibudilast	-3.109
CC(=O)c1ccc2c(c1)N(CC(C)N(C)C)c1ccccc1S2 (centres undefined)	Acepromethazine	-4.427

Repeated from above, the 5 entries with the highest log solubility:

{"smiles": "N[C@@H]1[C@@H](O)[C@H](O)[C@@H](CO)O[C@H]1O", "name": "Glucosamine", "log solubility (log10 mol/L)": "0.265"}
{"smiles": "O=C1CNC(=O)N1", "name": "Hydantoin", "log solubility (log10 mol/L)": "-0.4"}
{"smiles": "CC1CCCCC1(O)C(=O)O", "stereo": "centres undefined", "name": "1-Hydroxy-2-methylcyclohexanecarboxylic acid", "log solubility (log10 mol/L)": "-0.898"}
{"smiles": "COC(=O)CS(=O)(=O)c1ccccc1", "name": "Methyl phenylsulfonyl acetate", "log solubility (log10 mol/L)": "-1.141"}
{"smiles": "COc1ccc(O)c(C(=O)O)c1", "name": "Benzoic acid, 2-hydroxy-5-methoxy-", "log solubility (log10 mol/L)": "-1.271"}

From the experimental data distributed with OPERA 2.9.